Experimental data reported in patent US20240252454A1, “COMPOSITION COMPRISING AN INHIBITOR OF MITOCHONDRIAL TRANSCRIPTION” (LEAD DISCOVERY CENTER GMBH, priority 2021, published 2024).

Assays:
Experiment in all cases: SRB assay, IMT combined with inhibitor
Type in all cases: cell-based
KASUMI-1 = KASUMI-1 (hematological); concentration series of the labelled inhibitor + fixed concentration of IMT (3S)-1-[(2R)-2-[4-(2-chloro-4-fluoro-phenyl)-2-oxo-chromen-7-yl]oxypropanoyl]piperidine-3-carboxylic acid (Table 3: 40 nM, 120 h); negative=synergistic, positive=antagonistic
Protocol: (§1) Solforhodamine B assay is carried out as described in Voigt W. (2005) Sulforhodamine B Assay and Chemosensitivity. (Methods in Molecular Medicine™, vol 110. Humana Press. https://doi.org/10.1385/1-59259-869-2:039).
(§2) The determination of changes in cellular biomass was based on the Solforhodamine B assay format, carried out as described in Voigt W. (2005) Sulforhodamine B Assay and Chemosensitivity. (Methods in Molecular Medicine™, vol 110. Humana Press. https://doi.org/10.1385/1-59259-869-2:039).
(§3) All in vitro cell culture experiments were carried out under near physiological glucose concentrations (5 mM) in at least two independent replicates.
(§4) First, 30 different cell lines from 14 different tissue types were tested in the SRB assay format. The cells were examined individually for changes in growth over a period of 120 hours with dilution series of both inhibitors. Untreated cells were used as a negative control group. Subsequently, a dilution series of the respective MAPK signalling pathway SOCs was treated in combination with a fixed concentration of 40 nM (3S)-1-[(2R)-2-[4-(2-chloro-4-fluoro-phenyl)-2-oxo-chromen-7-yl]oxypropanoyl]piperidine-3-carboxylic acid.

LOVO = LOVO (colon); concentration series of the labelled inhibitor + fixed concentration of IMT (3S)-1-[(2R)-2-[4-(2-chloro-4-fluoro-phenyl)-2-oxo-chromen-7-yl]oxypropanoyl]piperidine-3-carboxylic acid (Table 3: 40 nM, 120 h); negative=synergistic, positive=antagonistic
Protocol: as §1, §2, §3, §4

HEPG2 = HEPG2 (liver); concentration series of the labelled inhibitor + fixed concentration of IMT (3S)-1-[(2R)-2-[4-(2-chloro-4-fluoro-phenyl)-2-oxo-chromen-7-yl]oxypropanoyl]piperidine-3-carboxylic acid (Table 3: 40 nM, 120 h); negative=synergistic, positive=antagonistic
Protocol: as §1, §2, §3, §4

CALU6 = CALU6 (lung); concentration series of the labelled inhibitor + fixed concentration of IMT (3S)-1-[(2R)-2-[4-(2-chloro-4-fluoro-phenyl)-2-oxo-chromen-7-yl]oxypropanoyl]piperidine-3-carboxylic acid (Table 3: 40 nM, 120 h); negative=synergistic, positive=antagonistic
Protocol: as §1, §2, §3, §4

MIAPACA2 = MIAPACA2 (pancreas); concentration series of the labelled inhibitor + fixed concentration of IMT (3S)-1-[(2R)-2-[4-(2-chloro-4-fluoro-phenyl)-2-oxo-chromen-7-yl]oxypropanoyl]piperidine-3-carboxylic acid (Table 3: 40 nM, 120 h); negative=synergistic, positive=antagonistic
Protocol: as §1, §2, §3, §4

PANC1 = PANC1 (pancreas); concentration series of the labelled inhibitor + fixed concentration of IMT (3S)-1-[(2R)-2-[4-(2-chloro-4-fluoro-phenyl)-2-oxo-chromen-7-yl]oxypropanoyl]piperidine-3-carboxylic acid (Table 3: 40 nM, 120 h); negative=synergistic, positive=antagonistic
Protocol: as §1, §2, §3, §4

GRANTA-519 = GRANTA-519 (hematological); concentration series of the labelled inhibitor + fixed concentration of IMT (3S)-1-[(2R)-2-[4-(2-chloro-4-fluoro-phenyl)-2-oxo-chromen-7-yl]oxypropanoyl]piperidine-3-carboxylic acid (Table 3: 40 nM, 120 h); negative=synergistic, positive=antagonistic
Protocol: as §1, §2, §3, §4

IMR90 = IMR90 (lung); concentration series of the labelled inhibitor + fixed concentration of IMT (3S)-1-[(2R)-2-[4-(2-chloro-4-fluoro-phenyl)-2-oxo-chromen-7-yl]oxypropanoyl]piperidine-3-carboxylic acid (Table 3: 40 nM, 120 h); negative=synergistic, positive=antagonistic
Protocol: as §1, §2, §3, §4

A673 = A673 (muscle); concentration series of the labelled inhibitor + fixed concentration of IMT (3S)-1-[(2R)-2-[4-(2-chloro-4-fluoro-phenyl)-2-oxo-chromen-7-yl]oxypropanoyl]piperidine-3-carboxylic acid (Table 3: 40 nM, 120 h); negative=synergistic, positive=antagonistic
Protocol: as §1, §2, §3, §4

HELA = HELA (cervix); concentration series of the labelled inhibitor + fixed concentration of IMT (3S)-1-[(2R)-2-[4-(2-chloro-4-fluoro-phenyl)-2-oxo-chromen-7-yl]oxypropanoyl]piperidine-3-carboxylic acid (Table 3: 40 nM, 120 h); negative=synergistic, positive=antagonistic
Protocol: as §1, §2, §3, §4

SKMEL28 = SKMEL28 (skin); concentration series of the labelled inhibitor + fixed concentration of IMT (3S)-1-[(2R)-2-[4-(2-chloro-4-fluoro-phenyl)-2-oxo-chromen-7-yl]oxypropanoyl]piperidine-3-carboxylic acid (Table 3: 40 nM, 120 h); negative=synergistic, positive=antagonistic
Protocol: as §1, §2, §3, §4

ASPC1 = ASPC1 (pancreas); concentration series of the labelled inhibitor + fixed concentration of IMT (3S)-1-[(2R)-2-[4-(2-chloro-4-fluoro-phenyl)-2-oxo-chromen-7-yl]oxypropanoyl]piperidine-3-carboxylic acid; negative=synergistic, positive=antagonistic
Protocol: as §1, §2, §3
(§5) To establish the method described, combinations of (3S)-1-[(2R)-2-[4-(2-chloro-4-fluoro-phenyl)-2-oxo-chromen-7-yl]oxypropanoyl]piperidine-3-carboxylic acid and various PARPi were tested with regard to their effect on the cell growth of 33 tumour cell lines from different tissues, in the SRB and CTG assay format. The assay methods and protocols in cell culture and measurement followed the procedure as described in Example 1). […] This initial study was followed by validation experiments in a matrix format and in the CTG assay, as described for Example 1) (Table 6.)

MDAMB231 = MDAMB231 (breast); concentration series of the labelled inhibitor + fixed concentration of IMT (3S)-1-[(2R)-2-[4-(2-chloro-4-fluoro-phenyl)-2-oxo-chromen-7-yl]oxypropanoyl]piperidine-3-carboxylic acid; negative=synergistic, positive=antagonistic
Protocol: as §1, §2, §3, §5

N#CC[C@H](C1CCCC1)n1cc(-c2ncnc3[nH]ccc23)cn1 [Ruxolitinib]
difference between the calculated combinatorial index (BLISS) and the observed combinatorial effect (KASUMI-1): 0.0840 | difference between the calculated combinatorial index (BLISS) and the observed combinatorial effect (LOVO): 0.0697 | difference between the calculated combinatorial index (BLISS) and the observed combinatorial effect (HEPG2): 0.0064 | difference between the calculated combinatorial index (BLISS) and the observed combinatorial effect (CALU6): −0.0319 | difference between the calculated combinatorial index (BLISS) and the observed combinatorial effect (MIAPACA2): 0.0502 | difference between the calculated combinatorial index (BLISS) and the observed combinatorial effect (PANC1): −0.0756 | difference between the calculated combinatorial index (BLISS) and the observed combinatorial effect (GRANTA-519): −0.0280 | difference between the calculated combinatorial index (BLISS) and the observed combinatorial effect (IMR90): 0.0463 | difference between the calculated combinatorial index (BLISS) and the observed combinatorial effect (A673): −0.0209 | difference between the calculated combinatorial index (BLISS) and the observed combinatorial effect (HELA): 0.0579 | difference between the calculated combinatorial index (BLISS) and the observed combinatorial effect (SKMEL28): −0.0505 | difference between the calculated combinatorial index (BLISS) and the observed combinatorial effect (ASPC1): −0.0054 | difference between the calculated combinatorial index (BLISS) and the observed combinatorial effect (MDAMB231): −0.0495
